Results as given in patent US20160152976A1, “COMPOUND ADMINISTRATION PRECURSOR AND MEDICAMENT CARRIER PREPARATION” (HitGen LTD., priority 2013, published 2016).

System: HepG2 cells

## 4-bromo-3-oxoacetic acid-5-(3-(((1-(4-fluorescein 19 polyA)12-alkyl acetamidophenyl)-1H-1,2,3-triazole-4-methylene)(1-phenylcarbamoylpiperidine)-4-methyl)amino)phenyl)thiophene-2-formic add [compound 5]
X-tremeGENEsiRNA transfection reagent (FIG. 9)
  transfer efficiency: over 80%
X-tremeGENEsiRNA transfection reagent, 6 h, laser confocal microscope (FIG. 8B)
  transfer into cells and positioning in the cells: may be transferred by the X-tremesiRNA into calls, with most of the compound 5 into the cytoplasm and a few of the compound 5 into the cell nucleus
